Source: patent US20250213574A1, “THERAPEUTIC COMBINATIONS COMPRISING UBIQUITIN- SPECIFIC-PROCESSING PROTEASE 1 (USP1) INHIBITORS AND CHEMOTHERAPY AGENTS” (KSQ Therapeutics, Inc., priority 2022, published 2025)

Assays:
[1] = test system: SUM149PT; assay: Colony formation (CFU) assay, SUM149PT; type: cell-based; conditions: breast, chemotherapy agent in combination with 300 nM Compound 1
Description: (§1) In vitro experiments were conducted using the colony formation unit (CFU) assay on various cell lines. The CFU assay involved first establishing what cell plating density enabled the development of clearly interspersed colonies on a six-well plate when left to grow for around 14 days. […] At or around day 14 when clearly interspersed colonies were visible in the DMSO-treated wells, the cells were fixed and stained using 0.1% crystal violet in 10% ethanol for 20 minutes at room temperature. The plates were imaged then the amount of crystal violet stain in each well was quantified by extracting the crystal violet into 10% acetic acid and the absorbance measured at 565 nm.
(§2) For certain cell lines, multiple IC50 values were taken, and those are separated by commas. Synergy scores are in parentheticals.

[2] = test system: NCIH596; assay: Colony formation (CFU) assay, NCIH596; type: cell-based; conditions: NCIH596, lung; chemotherapy agent in combination with 300 nM Compound 1
Description: as §1, §2

For `CO[C@@]12[C@H](COC(N)=O)C3=C(C(=O)C(C)=C(N)C3=O)N1C[C@@H]1N[C@@H]12` [Mito. C, mitomycin C], the synergy score [1] was “(1)” and the synergy score [2] was “(−1)”.
